This passage reports IC50 results from patent US20030224978A1, “Compounds and methods for modulating apoptosis” (McGill University, priority 1996, published 2003).

For one test, the system named is MDA-MB231. The class given is cell-based, human. The note with it: 3 h. The procedure: (§1) N-Ac-CHAVC-NH2 (SEQ ID NO:10) and the control peptide N-Ac-CHGVC-NH2 (SEQ ID NO:20) were evaluated for possible cytotoxic effects on human microvascular endothelial (HMVEC; Clonetics), human umbilical vein endothelial (HUVEC; ATCC #CRL-1730), IAFp2 (human fibroblast cell line; Institute Armand-Frapier, Montreal, Quebec), WI-38 (human fibroblast cell line; ATCC #CCL-75), MDA-MB231 (human breast cancer cell line; ATCC #HTB-26), and PC-3 (human prostate cancer cell line; ATCC #CRL-1435) cells utilizing the MTT assay (Plumb et al., Cancer Res. 49:4435-4440, 1989). Neither of the peptides was cytotoxic at concentrations up to and including 100 μM. Similarly, neither of the peptides was capable of inhibiting the proliferation of the above cell lines at concentrations up to 100 μM, as judged by ^3H-thymidine incorporation assays.

A further test deals with HUVEC. The class given is cell-based, human. The note with it: 3 h. The procedure: as §1

With `CC(=O)N[C@H]1CCCCNC(=O)C[C@@H](C(N)=O)NC(=O)[C@H](C(C)C)NC(=O)[C@H](C)NC(=O)[C@H](Cc2c[nH]cn2)NC1=O`, the IC50 in the test with MDA-MB231 and in the test on HUVEC was greater than 100 µM each time.
